{
  "source": "patent US20260022097A1",
  "about": "(priority 2022, published 2026)",
  "target": "mu-opioid receptor (MOR) (Homo sapiens, UniProt P35372)",
  "experiment": "inhibition of forskolin-induced cAMP accumulation assay, MOR antagonist mode versus fentanyl",
  "data": [
    {"smiles": "C/C=C\\[C@H]1[C@@H]2CCC[C@@]1(c1cccc(O)c1)CCN2CCc1ccccc1", "values": [
      {"measurement": "MOR antagonist (result in words)", "result": "potent MOR antagonist"}
    ]},
    {"smiles": "CC/C=C\\[C@H]1[C@@H]2CCC[C@@]1(c1cccc(O)c1)CCN2CCc1ccccc1", "values": [
      {"measurement": "MOR antagonist (result in words)", "result": "potent MOR antagonist"}
    ]},
    {"smiles": "C=C[C@H]1[C@@H]2CCC[C@@]1(c1cccc(O)c1)CCN2CCc1ccccc1", "note": "[Compound 19, 3-((1S,5R,9R)-2-Phenethyl-9-vinyl-2-azabicyclo[3.3.1]nonan-5-yl) phenol]", "values": [
      {"measurement": "MOR antagonist (result in words)", "result": "potent MOR antagonist"},
      {"measurement": "MOR antagonist potency relative to naltrexone", "result": "about twice as potent as naltrexone"}
    ]}
  ]
}
